Measured values reported in patent publication US7625905B2, “Octahydro-pyrrolo[3,4-c]pyrrole CCR5 receptor antagonists” (Roche Palo Alto LLC, priority 2006, dated 2009).

By UniProt entry, the sequences of proteins in these tests, tags left out.
UniProt P51681, whole entry: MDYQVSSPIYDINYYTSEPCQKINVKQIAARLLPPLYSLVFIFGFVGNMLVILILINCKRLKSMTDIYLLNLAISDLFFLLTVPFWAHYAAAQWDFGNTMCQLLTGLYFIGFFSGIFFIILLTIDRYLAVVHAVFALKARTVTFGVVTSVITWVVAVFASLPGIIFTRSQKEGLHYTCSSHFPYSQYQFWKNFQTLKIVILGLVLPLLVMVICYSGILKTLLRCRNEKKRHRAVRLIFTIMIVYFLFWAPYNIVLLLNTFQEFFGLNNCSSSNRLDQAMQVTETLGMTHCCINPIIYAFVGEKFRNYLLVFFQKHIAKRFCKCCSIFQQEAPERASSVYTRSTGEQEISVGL

Biological target: CCR5 (Homo sapiens, UniProt P51681)
Assay: CCR5-mediated CCF (cell-cell fusion) assay, Hela-R5 / CEM-NKr-CCR5-Luc luciferase readout
Assay type: cell-based
Set-up: host or cells: CEM-NKr-CCR5-Luc cells, co-cultured with Hela-R5 cells expressing gp160 and Tat
Procedure: The capacity for novel compounds of the present invention to bind to the CCR5 receptor and thereby antagonize CCR5 function can be evaluated with assay systems known in the art.
Hela-R5 cells (express gp160 from R5-tropic virus and HIV-1 Tat) were plated in 384 well white culture plates (BD Bioscience, Palo Alto, Calif.) at 7.5×10^3 cells per well in phenol red-free Dulbecco's Modified Eagle Medium (DMEM) supplemented with 10% FBS, 1× Pen-Strep, 300 μg/ml G418, 100 μg/ml hygromycin, and 1 μg/ml Doxycycline (Dox) (BD Bioscience, Palo Alto, Calif.), using Multimek (Beckman, Fullerton, Calif.) and incubated at 37° C. overnight to induce the expression of gp160. Ten μl diluted compounds in medium containing 5% DMSO were added to the cells, followed by the addition of CEM-NKr-CCR5-Luc (obtained from NIH AIDS Research & Reference Reagents Program) that expresses CD4 and CCR5 and carries a HIV-2 long terminal repeat (LTR)-driven luciferase reporter gene at 1.5×10^4 cells/15 μL/well and incubated for 24 hrs. At the end of co-culture, 15 μl of Steady-Glo luciferase substrate was added into each well, and the cultures were sealed and gently shaken for 45 min. The luciferase activity were measured for 10 sec per well as luminescence by using 16-channel TopCount NXT (PerkinElmer, Shelton, Conn.) with 10 min dark adaptation and the readout is count per second (CPS). […]

Cc1cc(C#N)nc(C)c1C(=O)N1CC2CN(CCC(c3ccccc3)C3CCN(S(C)(=O)=O)CC3)CC2C1 (stereo not shown) [V-24, 5-{5-[3-(1-Methanesulfonyl-piperidin-4-yl)-3-phenyl-propyl]-hexahydro-pyrrolo[3,4-c]pyrrole-2-carbonyl}-4,6-dimethyl-pyridine-2-carbonitrile]
IC50: 1.3 nM
